Laboratory results: patent US11773071B2, “Benzothiazepine compounds and their use as bile acid modulators” (Albireo AB, priority 2019, dated 2023)

The chains behind the UniProt entries cited, without tags or fusion partners.
UniProt Q14973, whole entry: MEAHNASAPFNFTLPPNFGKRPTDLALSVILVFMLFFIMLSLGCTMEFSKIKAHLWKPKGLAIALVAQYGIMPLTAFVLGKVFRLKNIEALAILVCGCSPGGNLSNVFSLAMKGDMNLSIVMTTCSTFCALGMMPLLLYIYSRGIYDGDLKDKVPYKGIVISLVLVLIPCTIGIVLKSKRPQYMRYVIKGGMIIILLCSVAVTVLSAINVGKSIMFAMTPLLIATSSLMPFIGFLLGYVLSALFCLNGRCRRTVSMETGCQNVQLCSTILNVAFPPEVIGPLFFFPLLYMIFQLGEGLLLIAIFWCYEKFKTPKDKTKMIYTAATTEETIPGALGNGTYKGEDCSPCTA
UniProt Q12908, whole entry: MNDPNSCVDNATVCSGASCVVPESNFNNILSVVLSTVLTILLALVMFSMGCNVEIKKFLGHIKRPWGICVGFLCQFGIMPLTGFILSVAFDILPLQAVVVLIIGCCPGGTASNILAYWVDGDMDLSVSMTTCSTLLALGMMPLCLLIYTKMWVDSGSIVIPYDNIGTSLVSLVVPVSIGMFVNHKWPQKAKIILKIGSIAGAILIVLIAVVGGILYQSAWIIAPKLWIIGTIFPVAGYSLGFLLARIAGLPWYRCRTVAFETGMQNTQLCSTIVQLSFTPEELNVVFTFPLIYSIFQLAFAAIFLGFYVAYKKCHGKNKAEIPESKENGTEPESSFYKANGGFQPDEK

Experiments:
Human LBAT = Human LBAT (Homo sapiens, UniProt Q14973); experiment: LBAT (h/m) assay, human LBAT-overexpressing cells, 3H-taurocholic acid uptake; settings: read-out: hLBAT IC50, 0.3 μM 3H-taurocholic acid and 7.5 μM cold taurocholic acid, 20 minutes
Human IBAT = Human IBAT (Homo sapiens, UniProt Q12908); experiment: IBAT (h/m) assay, human IBAT-overexpressing cells, 3H-taurocholic acid uptake; settings: read-out: hIBAT IC50, 0.25 μM 3H-taurocholic acid and 5 μM cold taurocholic acid, 20 minutes

SMILES	IC50 (Human LBAT) [µM]	IC50 (Human IBAT) [µM]
CCCCC1(CC)CN(c2ccc(F)cc2)c2cc(SC)c(OCCC(=O)O)cc2S(=O)(=O)C1 (single isomer, unassigned) [38, enantiomer 1]	0.289	0.024
CCCCC1(CC)CN(c2ccc(F)cc2)c2cc(SC)c(OCCC(=O)O)cc2S(=O)(=O)C1 (single isomer, unassigned) [38, enantiomer 2]	0.439	0.0008
